Data on one compound can be found in patent US8933221B2, “Hexahydropyrano[3,4-d][1,3]thiazin-2-amine compounds” (Pfizer Inc., priority 2011, dated 2015).

The chains behind the UniProt entries cited, without tags or fusion partners. Residues count along the entry.
UniProt P56817, 46-501 limits assumed: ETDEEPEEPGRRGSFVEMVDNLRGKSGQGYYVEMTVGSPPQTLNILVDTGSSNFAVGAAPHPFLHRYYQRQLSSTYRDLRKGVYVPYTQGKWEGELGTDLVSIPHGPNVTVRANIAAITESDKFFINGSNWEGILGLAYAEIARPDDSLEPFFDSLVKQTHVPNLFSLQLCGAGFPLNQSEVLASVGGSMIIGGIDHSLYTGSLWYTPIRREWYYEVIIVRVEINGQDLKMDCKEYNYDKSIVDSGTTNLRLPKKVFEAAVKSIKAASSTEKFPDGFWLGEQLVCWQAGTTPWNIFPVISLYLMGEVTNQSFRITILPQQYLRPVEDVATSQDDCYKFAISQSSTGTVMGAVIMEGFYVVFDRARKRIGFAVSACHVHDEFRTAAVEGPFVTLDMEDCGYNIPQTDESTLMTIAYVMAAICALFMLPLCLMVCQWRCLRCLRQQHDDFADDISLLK

The target in the assay is BACE1 enzyme (Homo sapiens, UniProt P56817). The assay is described as follows: BACE1 cell-free assay (fluorescence polarization, synthetic APP substrate).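 Also: soluble His-tagged BACE1 purified from transfected CHO-K1 cell media, biotinylated Oregon Green-labelled peptide substrate, 3 h at 37 °C, cleavage followed as change in fluorescence polarization.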 To be noted: geometric mean of 2-4 determinations; values marked b from a single determination. The format is biochemical. Background: In fluorescence polarisation assays a small probe gives low polarisation when free and higher when bound to something large.

Structures are written as SMILES.

In general, IC50 refers to the concentration at which inhibition is half-maximal.

`NC1=N[C@@]2(c3c(F)cccc3F)COCC[C@H]2CS1` (relative stereo) [Example 16, rel-(4aR,8aS)-8a-(2,6-Difluorophenyl)-4,4a,5,6,8,8a-hexahydropyrano[3,4-d][1,3]thiazin-2-amine] registered an IC50 of 13.8 µM.
